# Yeast mating assay B: variants of the scFv Ab-14

The measurements come from Li et al. 2023 (doi:10.1038/s41467-023-39022-2) through the FLAb antibody collection.

The target is the same throughout: PDVDLGDISGINAS, from the HR2 region of SARS-CoV-2 spike.

The variants keep the light chain, the linker and the frameworks of Ab-14 (scFv order VH, three GGGGS repeats, VL).
VH: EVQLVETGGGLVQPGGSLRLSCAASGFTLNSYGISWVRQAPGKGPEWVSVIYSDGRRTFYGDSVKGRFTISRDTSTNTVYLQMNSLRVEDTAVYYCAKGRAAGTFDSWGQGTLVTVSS
VL: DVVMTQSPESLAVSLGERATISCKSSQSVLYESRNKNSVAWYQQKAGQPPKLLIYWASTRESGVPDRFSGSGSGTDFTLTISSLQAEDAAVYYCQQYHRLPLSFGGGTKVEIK

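The starting antibody came from a phage panning campaign against this peptide. Designed CDR sequences, proposed from the first random library and measured here. Group labels follow the data file (Ctrl: baseline library sampled from a position-specific scoring matrix, with some repeated check sequences; GP: Gaussian process model; GPLM: also part of the Gaussian process libraries; Gen: genetic algorithm; a sequence that several methods proposed may carry one label only). In AlphaSeq, yeast of one mating type display the scFv and yeast of the other type display the target. Binding brings cells together so that they mate, and sequencing counts the barcode pairs among the diploids. Each replicate has its own calibration line, from reference interactions of the BCL2 family. Mating was done six times.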

Each variant is given by its three heavy chain CDRs, as the data file delimits them; those of the parent are GFTLNSYGIS, VIYSDGRRTFYGDSVK, GRAAGTFDS.
Numbers give log10(Kd / nM), so 0 is 1 nM and 3 is 1 µM. Smaller is tighter.
Replicates are averaged; those with no signal do not enter the mean.
"n.d." means that the variant was in the library but no mating with the target was seen in that replicate; the authors take this as a sign of poor binding, and no number exists.

CDR-H1,CDR-H2,CDR-H3,group,"replicates, log10 nM","mean, log10 nM",control signals
GFTLNSYGIS,VILSDGCRTAYGDSVK,GRAAGTFDS,Ctrl,n.d. n.d. n.d. n.d. n.d. n.d.,n.d.,2/18 (1.59)
GFTLNSYGIS,VDYSDGRRTQYIDSVK,GHAIATFDS,Ctrl,n.d. n.d. n.d. n.d. n.d. n.d.,n.d.,1/18 (1.23)
GFNLNSYGIS,VIYSDGRRTFYGDSVK,QRAAGTFDS,Ctrl,n.d. n.d. n.d. n.d. n.d. 2.60,2.60,0/18
GFTLNSYGIS,VIYSDGRRAGYGDSVK,GRAAWPFDS,Ctrl,n.d. n.d. n.d. n.d. n.d. n.d.,n.d.,0/18
GFTLRSYGIS,VIYSDGRRNFYGDSVK,GKAAGTFDT,Ctrl,n.d. n.d. n.d. n.d. n.d. n.d.,n.d.,1/18 (2.60)
GTTLADYGIS,VIYSDGRRTFYGDSVK,GRAAGTFDC,Ctrl,n.d. n.d. n.d. n.d. n.d. n.d.,n.d.,0/18
GFHLNSYGIS,VIYSDGRRTFYGDSVK,GRVAGTFDS,Ctrl,n.d. 2.26 1.29 n.d. 1.69 1.83,1.77,0/18
GFTLNDYGIS,VIYSDGRRTAYGDRVK,GRAAGRFDE,Ctrl,n.d. n.d. n.d. n.d. n.d. n.d.,n.d.,0/18
GFNLNSYGIS,VIYSDGRRTFYGDSVK,GRAAGKFDQ,Ctrl,n.d. n.d. n.d. n.d. n.d. n.d.,n.d.,0/18
GFHLNDYGIS,VIYSDGRRTFYTDSVK,GRAAGTFDS,Ctrl,0.80 -0.11 0.29 0.37 0.05 0.82,0.37,0/18
GFTLNKYGIS,VIYSDGRRTFYGDEVK,GRLAGTFDS,Ctrl,n.d. n.d. n.d. n.d. n.d. n.d.,n.d.,0/18
GFELNEYGIS,VIYSDGRRTFYGDSVK,GTAAQTFDS,Ctrl,n.d. n.d. n.d. n.d. n.d. n.d.,n.d.,2/18 (1.92)
GFTLNMYGIS,VIYSDGRRCFYGDSTK,GRAAGTFDS,Ctrl,n.d. 1.78 n.d. n.d. n.d. n.d.,1.78,1/18 (2.85)
GFTINSYGIS,VIYSDGRRTFYADSVK,GRAAGTFDS,Ctrl+GPLM_Gen,1.50 1.32 1.51 1.42 1.46 1.30; 1.03 1.48 1.07 1.31 2.50 3.12,1.59,0/36
GFTLQSYGIS,VIYSDGRRTMYGDSVK,GRAAGTFDS,Ctrl,n.d. n.d. n.d. 1.68 n.d. n.d.,1.68,2/18 (2.67)
GFNLNSYGIS,VIYSDGRRTFYGDSVK,GRAAGTFDH,Ctrl,1.12 2.02 1.15 1.64 1.86 n.d.,1.56,0/18
GFSLNSYGIS,VIYSDGRRTFYTDSVK,GRAAGTMDS,Ctrl,n.d. n.d. n.d. n.d. n.d. n.d.,n.d.,1/18 (2.01)
GFTLNSYGIS,VIYSDGRRTAYGDSVK,GRNAGTFDS,Ctrl+GP_Gen,1.15 0.95 1.25 0.61 0.98 0.77; 0.29 0.85 0.41 0.85 0.42 0.13,0.72,0/36
GFKLNSYGIS,VIYSDGRRTFYGDNVK,GRAAGTFDK,Ctrl,n.d. n.d. n.d. n.d. n.d. n.d.,n.d.,1/18 (4.61)
GFTLNSYGIS,VIYSDGRRTGYIDSVK,GRAAGTFDS,Ctrl,0.19 -0.31 -0.20 -0.37 -0.01 0.02,-0.11,0/18
GFSLNSYGIS,VIYSDGRRTFYGDSVK,RKAMGQFDS,Ctrl,n.d. n.d. n.d. n.d. n.d. n.d.,n.d.,0/18
QFTPNSYGIS,VIYSDGRRTFYGDSVK,GYAGGTFDS,Ctrl,n.d. n.d. n.d. n.d. n.d. n.d.,n.d.,0/18
GETLNSYGIS,VIYSDGRRTFYGNSVK,GGAAGTFDS,Ctrl,0.64 1.63 n.d. n.d. n.d. n.d.,1.14,2/18 (1.54)
GFTLNSYGIS,VIYSDGRRTFYGDDVK,GSAALTFDS,Ctrl,n.d. 1.96 n.d. n.d. n.d. n.d.,1.96,0/18
GFHLNDYGIS,VAYSDGRRTFYGDSVK,GRAAGTFRV,Ctrl,n.d. 0.35 0.89 -0.29 n.d. 0.60,0.39,0/18
GFDLNMYGIS,VIYSDGRRCFYGDSVK,GRAAGTFDS,Ctrl,n.d. 0.84 n.d. -0.07 0.33 0.99,0.52,0/18
GFTLNSYGIS,VIYSDGRRDFYLDSVK,RRAAKTFDS,Ctrl,n.d. n.d. n.d. n.d. n.d. n.d.,n.d.,0/18
GFTLNKYGIS,VIYADGRRTFYDDSVK,GRAAGTFIS,Ctrl,-0.02 0.60 -0.45 0.02 -0.30 -0.09,-0.04,0/18
GFDLNSYGIS,VIYSDGRRTFHGDSVK,GRAAGTFDS,Ctrl,n.d. n.d. n.d. n.d. n.d. n.d.,n.d.,0/18
GFTLNDYGIS,VIYSDGWRTFYGDSVK,GRAAGFFDS,Ctrl,n.d. n.d. n.d. n.d. n.d. n.d.,n.d.,0/18
GFTLNSYGIS,VIYSDGGRTAYGDSVK,GRARGTPDS,Ctrl,n.d. n.d. n.d. n.d. n.d. n.d.,n.d.,0/18
GFTLNSYGIS,VIYSDGRRTFYIDSVK,GRAAGEFDS,Ctrl,n.d. 1.11 2.17 n.d. n.d. 1.28,1.52,0/18
GFALNSYGIS,VIYADGRRTFYGDSVK,GRAAGTVDS,Ctrl,n.d. n.d. n.d. 2.39 n.d. n.d.,2.39,0/18
GFTLNSYGIS,VIYSDGKRTFYGDSVK,GRAAGTFES,Ctrl,n.d. n.d. n.d. n.d. n.d. n.d.,n.d.,0/18
GFTLNSYGIS,VIYSDGRRTFYGDSVR,GRAAVTFDS,Ctrl,2.52 2.21 2.41 n.d. 1.88 2.19,2.24,1/18 (2.34)
GFTLNSYGIS,VIYSDGRRTFYGQSVK,GQSAGTFDS,Ctrl,2.05 1.47 n.d. 1.87 2.48 1.14,1.80,0/18
GFTLNSYGIS,VIYSDGRRTFYGDNYK,GKAAGTFDS,Ctrl,n.d. n.d. n.d. n.d. n.d. n.d.,n.d.,0/18
GFVLNSYGIS,VIYSDGRRTFYGDSVK,GRAAGTSDS,Ctrl,n.d. n.d. n.d. n.d. n.d. n.d.,n.d.,0/18
GFTLNDYGIS,VIYSDGRRTFYGDSVK,GRNAGQFDS,Ctrl,n.d. n.d. 3.20 n.d. n.d. n.d.,3.20,0/18

For reference, 3 entries of the list once more:

{"CDR-H1": "GFHLNSYGIS", "CDR-H2": "VIYSDGRRTFYGDSVK", "CDR-H3": "GRVAGTFDS", "group": "Ctrl", "replicates, log10 nM": "n.d. 2.26 1.29 n.d. 1.69 1.83", "mean, log10 nM": "1.77", "control signals": "0/18"}
{"CDR-H1": "GFTINSYGIS", "CDR-H2": "VIYSDGRRTFYADSVK", "CDR-H3": "GRAAGTFDS", "group": "Ctrl+GPLM_Gen", "replicates, log10 nM": "1.50 1.32 1.51 1.42 1.46 1.30; 1.03 1.48 1.07 1.31 2.50 3.12", "mean, log10 nM": "1.59", "control signals": "0/36"}
{"CDR-H1": "GFHLNDYGIS", "CDR-H2": "VIYSDGRRTFYTDSVK", "CDR-H3": "GRAAGTFDS", "group": "Ctrl", "replicates, log10 nM": "0.80 -0.11 0.29 0.37 0.05 0.82", "mean, log10 nM": "0.37", "control signals": "0/18"}

The authors averaged sequences with at least three values out of six and counted those with two or fewer as poor binders.
A sequence that the file lists under several names has all its replicates listed entry by entry, parted by semicolons.
Background: pairings of all heavy chain designs with three empty control strains gave a value in 1% of cases (median 2.08, 5th percentile 0.84). Values in that range, when seen in few replicates, are hard to tell from nonspecific mating. The control count says in how many pairings with the empty strains this scFv gave a signal, with their mean in brackets.
Values of this round are not directly comparable with the first-round values of the same sequences.